Ab-14 heavy chain CDR variants: yeast mating affinities

Target: peptide PDVDLGDISGINAS, taken from heptad repeat 2 (HR2) of SARS-CoV-2 spike.

Parent scFv Ab-14: VH joined to VL by a 15-residue (Gly4Ser)3 linker. Changes lie in the heavy chain CDRs alone.
VH: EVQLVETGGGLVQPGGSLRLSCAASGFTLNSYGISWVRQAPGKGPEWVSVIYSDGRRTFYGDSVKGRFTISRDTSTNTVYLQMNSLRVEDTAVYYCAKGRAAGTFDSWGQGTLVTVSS
VL: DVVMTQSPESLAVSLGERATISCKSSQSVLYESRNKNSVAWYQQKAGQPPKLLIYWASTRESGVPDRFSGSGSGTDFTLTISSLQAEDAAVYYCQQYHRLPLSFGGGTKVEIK

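The starting antibody came from a phage panning campaign against this peptide. These sequences belong to a second round, designed from the earlier measurements on random variants of the parent. Several design methods are mixed in this list. Affinity was read by AlphaSeq, a pooled yeast mating assay with surface-displayed partners. Pairs that bind mate more often; barcode pairs of the diploids are counted by sequencing. Scores were corrected for input abundance and mapped to Kd with protein pairs of known affinity run in the same pool. The assay was run in six technical replicates.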

Variants are written as CDR1, CDR2 and CDR3 of the heavy chain (limits as in the source). Parent: GFTLNSYGIS, VIYSDGRRTFYGDSVK, GRAAGTFDS. Numbers give log10(Kd / nM), so 0 is 1 nM and 3 is 1 µM. Smaller is tighter. A mean of the replicates is given; it leaves out those without a signal. "nd" means that the variant was in the library but no mating with the target was seen in any replicate; the authors take this as a sign of poor binding, and no number exists. The range of this assay differs from that of the first round, and the authors advise against merging the two. As a blank, each scFv also met three strains without target: over all heavy chain designs, 1% of these pairings were detected, typically at 2.08 and seldom below 0.84. In the paper, a design with two or fewer of six values counts as a poor binder. The parent sequence was in this pool as ten entries: three were never detected, three once, and four in most replicates, with averages from 0.34 to 2.37.

| CDR-H1 | CDR-H2 | CDR-H3 | log10 Kd (nM), mean | replicates with signal |
|---|---|---|---|---|
| GFDLNEYGIS | VIYADGVRTAYSDDVK | GQNAGTFDV | 0.21 | 6/6 |
| GFSLNEYGIS | VIYSDGRRTFYGDKVK | GRTAGTFDS | -0.21 | 6/6 |
| GFWLNSYGIS | VIYSDGRRTFYADSVK | GQAAGTFDS | 2.22 | 5/6 |
| GFSLNEYGIS | VIYSDGRRTFYADSVK | GRTAGTFDT | -0.16 | 6/6 |
| GFDLNEYGIS | VIYADGRRTAYIDSVK | GEAAGTFDQ | 1.33 | 6/6 |
| GFTLNQYGIS | VIYSDGRRTFYGDSVK | GRAAQTFDS | nd | 0/6 |
| GFNLDEYGIS | VIYADGMRNAYRDTVK | GAHSFGLKT | nd | 0/6 |
| GFDLNEYGIS | VIYADGMRQAYADSVK | GNVAGTFDT | -0.32 | 6/6 |
| GFTLNKYGIS | VIYSDGRRTSYADSVK | GRAAGTFDS | 2.32 | 4/6 |
| GFMLNSYGIS | VIYSDGRRTFYHDSVK | GWTAGTFDS | -0.27 | 5/6 |
| GFDLNEYGIS | VIYADGSRTFYSDSVK | GQTAGTFDT | 0.38 | 6/6 |
| GFDLDEYGVS | VIYADGERTFYQDKVK | GTHGNTRVL | nd | 0/6 |
| GFSLNNYGIS | VIYSDGRRTFYGDHVK | GRTAGTFDS | -0.48 | 4/6 |
| GFDLNEYGIS | VIYADGKRTFYADSVK | GKNAGTFDV | -0.37 | 6/6 |
| GFTLNSYGIS | VIYADGRRTFYGDSVK | GRIAGTFDK | 0.10 | 6/6 |
| GFSLNLYGIS | VIYSDGRRTFYGDSVK | GRTAGTFDS | 1.63 | 5/6 |
| GFSLNSYGIS | VIYSDGRRTMYIDSVK | GQAAGTFDS | 1.12 | 3/6 |
| GFDLDEYGIS | VIYADGKRTAYADSVK | GANAGTFDI | -0.28 | 6/6 |
| GFDLNEYGIS | VIYADGKRTAYADSVK | GNEAGTFDI | -0.12 | 3/6 |
| GFDLNEYGIS | VIYADGMRTAYADDVK | GSNAGTFDV | -0.45 | 6/6 |
| GFGLSSYGIS | VIYSDGRRTFYGDQVK | GRAAGTFDS | nd | 0/6 |
| GFHLDEYGIS | VIYADGKRSVYTNDVK | GELQLGFVI | nd | 0/6 |
| GFDLDEYGIS | VIYADGRRTAYADSVK | GETAGTFDL | -0.18 | 6/6 |
| GFTLNEYGIS | VIYSDGRRTFYTDSVK | GRMAGTFDS | 0.23 | 6/6 |
| GFDLNEYGIS | VIYADGRRTAYTDSVK | GQLAGTFDV | -1.21 | 6/6 |
| GFTLNSYGIS | VIYSDGRRTFYSDDVK | GQTAGTFDS | -0.16 | 6/6 |
| GFGLNSYGIS | VIYSDGRRTFYADSVK | GKTAGTFDS | -0.66 | 1/6 |
| GFSLNMYGIS | VIYSDGRRTAYIDSVK | GRAAGTFDS | 0.54 | 6/6 |
| GFNLEDYGIS | VIYADGQRTFYADSVK | GKVAGTFDV | -0.74 | 6/6 |
| GFTLTSYGIS | VIYSDGRRVFYGDSVK | GRAAGTFNS | 2.10 | 4/6 |
| GFQLNSYGIS | VIYSDGRRTFYGDSVK | GRTAGTFDV | 0.85 | 6/6 |
| GFTLNSYGIS | VIYSDGKRTFYGDRVK | GQAAGTFDL | 1.39 | 3/6 |
| GYTLLSYGIS | VIYSDGRRTFYGDSVK | DQAALTFDS | nd | 0/6 |
| GFDLNEYGIS | VIYADGMRKAYADSVK | GENAGTFDT | -0.16 | 6/6 |
| GFHLDEYGIS | VIYADGMRSQVADNVK | GGIVAYFTQ | nd | 0/6 |
| GFDLDEYGIS | VIYADGVRTAYSDSVK | GENAGTFDV | 0.22 | 6/6 |
| GFDLNEYGIS | VIYADGMRTYYADDVK | GNNAGTFDL | -0.34 | 6/6 |
| GFDLNEYGIS | VIYADGKRTAYADDVK | GETAGTFDQ | -0.47 | 6/6 |
| KFTLNSYGIS | VIYSDGKRTFYKDSVK | GQTAGTFDS | nd | 0/6 |
| GFRLNDYGIS | VIYSDGRRTFYIDSVK | GRLAGTFDS | 0.89 | 3/6 |
| GFSLNEYGIS | VIYADGLRSEYQDKVK | GELALSLDT | 2.49 | 1/6 |
| GFDLDEYGIS | VIYADGRRTFYSDSVK | GNVAGTFDV | -0.72 | 6/6 |
| GFGLNSYGIS | VIYSDGRRTFYGDSVK | GTAAGTFDD | 1.26 | 4/6 |
| KFTLAEYGIS | VIYSDGRRTFYGDSVK | GTAAGTFDS | nd | 0/6 |
| GKTLDEYGIS | VIYADGMRTSYIDSVK | GGIDGWRMI | nd | 0/6 |
| GFTLKSYGIS | VIYSDGRRTFYDDSVK | GKAAGTFDS | 1.96 | 1/6 |
| GFDLNSYGIS | VIYSDGRRTFYVDSVK | GWAAGTFDS | 1.18 | 6/6 |
| GFNLDEYGVS | VIYADGIRCTYADAVK | GKHGGAFFV | nd | 0/6 |
| GFDLNEYGIS | VIYADGRRTFYQDSFK | GETAGTFDQ | -0.42 | 6/6 |
| GFDLNEYGIS | VIYADGVRKAYADSVK | GNVAGTFDQ | -0.20 | 6/6 |
| GFDLNEYGIS | VIYADGRRTFYADSVK | GTIAGTFDQ | -1.25 | 6/6 |
| GFSLNEYGIS | VIYSDGRRTFYGDRVK | GRTAGTFVS | 2.27 | 5/6 |
| GFSLDEFGIS | VIYADGMRSFYTDNVK | GINVNALVI | nd | 0/6 |
| GFTLNDYGIS | VIYSDGRRTFYGDSVK | GTARGAFDT | 2.63 | 5/6 |
| GFNLNEYGIS | VIYADGMRTFYADSVK | GQVAGTFDM | -0.49 | 6/6 |
| GFDLNSYGIS | VIYSDGRRTFYGDSVK | GRQAGTFES | 1.46 | 6/6 |
| KFTLNSYGIS | VIYSDGRRTFYGDSVK | GRAADTFDS | nd | 0/6 |
| GFDLNEYGIS | VIYADGVRTAYTDSVK | GENAGTFDQ | 0.20 | 6/6 |
| GFTLESYGIS | VIYSDGRRTFYSDSVK | GRAMGTFDS | nd | 0/6 |
| GFDLNEYGIS | VIYADGRRTSYVDSVK | GEAAGTFNV | -0.49 | 6/6 |
| GFTLNSYGIS | VIYSDGRRTFYGDGVK | GREAGTFDT | 0.57 | 6/6 |
| GSNLDEYGIS | VIYADGMRQAYIEDVK | GTNGVSVFF | nd | 0/6 |
| GFDLDEYGIS | VIYADGMRTFYADSVK | GNNAGTFDL | 0.07 | 6/6 |
| GFDLNEYGIS | VIYADGVRTFYVDSVK | GQTAGTFDS | -0.42 | 6/6 |
| GFSLNSYGIS | VIYADGRRTFYGDSVK | GRAAGTFDV | -0.05 | 6/6 |
| GFDLNEYGIS | VIYADGRRTFYIDSVK | GEAAGTFDM | -0.39 | 6/6 |

Excerpt, the final 10 entries:

| CDR-H1 | CDR-H2 | CDR-H3 | log10 Kd (nM), mean | replicates with signal |
|---|---|---|---|---|
| KFTLNSYGIS | VIYSDGRRTFYGDSVK | GRAADTFDS | nd | 0/6 |
| GFDLNEYGIS | VIYADGVRTAYTDSVK | GENAGTFDQ | 0.20 | 6/6 |
| GFTLESYGIS | VIYSDGRRTFYSDSVK | GRAMGTFDS | nd | 0/6 |
| GFDLNEYGIS | VIYADGRRTSYVDSVK | GEAAGTFNV | -0.49 | 6/6 |
| GFTLNSYGIS | VIYSDGRRTFYGDGVK | GREAGTFDT | 0.57 | 6/6 |
| GSNLDEYGIS | VIYADGMRQAYIEDVK | GTNGVSVFF | nd | 0/6 |
| GFDLDEYGIS | VIYADGMRTFYADSVK | GNNAGTFDL | 0.07 | 6/6 |
| GFDLNEYGIS | VIYADGVRTFYVDSVK | GQTAGTFDS | -0.42 | 6/6 |
| GFSLNSYGIS | VIYADGRRTFYGDSVK | GRAAGTFDV | -0.05 | 6/6 |
| GFDLNEYGIS | VIYADGRRTFYIDSVK | GEAAGTFDM | -0.39 | 6/6 |

Reference: Li et al. 2023, doi:10.1038/s41467-023-39022-2. File: FLAb, binding data.